This note sets out measurements from ChEMBL document CHEMBL4373720, “Discovery of Conformationally Restricted Human Glutaminyl Cyclase Inhibitors as Potent Anti-Alzheimer's Agents by Structure-Based Design” (J Med Chem, 2019).

The chains behind the UniProt entries cited, without tags or fusion partners. Residues count along the entry.
UniProt Q12809, whole entry: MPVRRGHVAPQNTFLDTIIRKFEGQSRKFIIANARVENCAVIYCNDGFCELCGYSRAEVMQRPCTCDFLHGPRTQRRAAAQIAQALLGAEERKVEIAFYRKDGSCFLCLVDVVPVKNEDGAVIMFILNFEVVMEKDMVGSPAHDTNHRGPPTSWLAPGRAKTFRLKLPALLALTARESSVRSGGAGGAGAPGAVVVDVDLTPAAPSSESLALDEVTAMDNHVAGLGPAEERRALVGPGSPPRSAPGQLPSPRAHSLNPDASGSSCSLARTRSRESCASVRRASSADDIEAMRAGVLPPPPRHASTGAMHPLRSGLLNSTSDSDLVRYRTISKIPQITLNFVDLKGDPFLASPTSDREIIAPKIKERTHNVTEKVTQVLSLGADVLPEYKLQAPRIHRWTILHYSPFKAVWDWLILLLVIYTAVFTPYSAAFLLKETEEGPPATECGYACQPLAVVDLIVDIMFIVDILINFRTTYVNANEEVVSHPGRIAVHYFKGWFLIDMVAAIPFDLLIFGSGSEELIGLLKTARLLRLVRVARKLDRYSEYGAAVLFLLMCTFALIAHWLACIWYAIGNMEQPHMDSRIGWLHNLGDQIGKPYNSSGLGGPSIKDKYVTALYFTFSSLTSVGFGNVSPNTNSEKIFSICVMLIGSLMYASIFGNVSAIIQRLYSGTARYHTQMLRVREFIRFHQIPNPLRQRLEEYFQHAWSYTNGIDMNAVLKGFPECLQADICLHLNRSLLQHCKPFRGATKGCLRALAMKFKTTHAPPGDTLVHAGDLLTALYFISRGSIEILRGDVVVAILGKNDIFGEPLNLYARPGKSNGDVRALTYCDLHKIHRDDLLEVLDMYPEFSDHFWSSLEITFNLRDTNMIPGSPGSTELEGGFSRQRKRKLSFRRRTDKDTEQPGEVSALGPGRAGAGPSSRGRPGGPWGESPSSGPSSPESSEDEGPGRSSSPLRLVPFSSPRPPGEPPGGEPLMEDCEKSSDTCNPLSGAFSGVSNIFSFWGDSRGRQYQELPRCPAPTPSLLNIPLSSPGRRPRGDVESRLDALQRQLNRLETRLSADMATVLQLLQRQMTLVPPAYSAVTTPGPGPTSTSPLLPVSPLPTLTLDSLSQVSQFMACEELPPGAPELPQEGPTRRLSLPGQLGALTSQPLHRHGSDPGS
UniProt Q9CYK2, 36-362 limits assumed: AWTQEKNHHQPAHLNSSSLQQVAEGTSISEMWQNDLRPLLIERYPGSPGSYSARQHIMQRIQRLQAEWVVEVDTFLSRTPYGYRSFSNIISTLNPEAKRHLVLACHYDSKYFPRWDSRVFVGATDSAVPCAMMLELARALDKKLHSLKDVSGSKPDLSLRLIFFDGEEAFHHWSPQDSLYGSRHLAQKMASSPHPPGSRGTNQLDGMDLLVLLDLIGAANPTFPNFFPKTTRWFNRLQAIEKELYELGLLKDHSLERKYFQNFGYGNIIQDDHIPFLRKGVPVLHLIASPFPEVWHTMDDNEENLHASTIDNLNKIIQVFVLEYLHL

This is a selection: effects in other tests are not listed, and their absence says nothing.

The test system of data set [1] is Mus musculus. As to the kind of experiment: Antialzheimer activity in 5XFAD transgenic ICR mouse assessed as reduction in amyloid beta-42 level in brain at 25 mg/kg, ip administered daily for 4 weeks measured post-last dose by sandwich ELISA relative to control. The arrangement: scale not given: the % may be the effect or the level left. For orientation: In an ELISA, binding on a coated surface is turned into a signal by an enzyme label.

Data set [2] deals with Mus musculus. As to the kind of experiment: Antialzheimer activity in 5XFAD transgenic ICR mouse assessed as reduction in amyloid beta-40 level in brain at 25 mg/kg, ip administered daily for 4 weeks measured post-last dose by sandwich ELISA relative to control. The arrangement: scale not given: the % may be the effect or the level left.
Data set [3] deals with Voltage-gated inwardly rectifying potassium channel KCNH2 (Homo sapiens, UniProt Q12809). As to the kind of experiment: Displacement of tracer red from human ERG at 10 uM by fluorescence polarization assay relative to control. For orientation: Polarisation of emitted light reports the rotation of a fluorescent probe.
The test system of data set [4] is Mus musculus. Kind of data set: Neuroprotection in human amyloid beta (3 to 40 residues)-induced ICR mouse model of Alzheimer's disease assessed as inhibition of human amyloid beta N3pE-40 level in brain at 25 mg/kg, ip measured after 24 hrs by sandwich ELISA relative to control. Format: functional.
Data set [5] in a line: Stability in mouse liver microsomes assessed as parent compound remaining measured after 30 mins. Format: ADME, Microsome. The following applies: 0.5 h.
A short description of data set [6]: Stability in human liver microsomes assessed as parent compound remaining measured after 30 mins. Format: ADME, Microsome. Particulars: 0.5 h. In general terms: Liver microsomes are a subcellular fraction often used to study metabolism.
The test system of data set [7] is HT-22. As to the kind of experiment: Cytotoxicity against mouse HT22 cells assessed as cell viability at 10 uM measured after 18 hrs by MTT assay relative to control. Format: cell-based. The following applies: ht-22, 18 h.
Data set [8] is described as follows: Toxicity in 5XFAD transgenic ICR mouse at 25 mg/kg, ip administered daily for 4 weeks. The following applies: in vivo, 672 h.
Data set [9] relates to Mus musculus. As to the kind of experiment: Antialzheimer activity in 5XFAD transgenic ICR mouse assessed as reduction in amyloid beta N3pE-42 level in brain at 25 mg/kg, ip administered daily for 4 weeks measured post-last dose by sandwich ELISA relative to control. The arrangement: scale not given: the % may be the effect or the level left.
Data set [10] addresses Glutaminyl-peptide cyclotransferase (Mus musculus, UniProt Q9CYK2). As to the kind of experiment: Inhibition of mouse glutaminyl cyclase.
The test system of data set [11] is Mus musculus. As to the kind of experiment: Antialzheimer activity in 5XFAD transgenic ICR mouse assessed as reduction in amyloid beta N3pE-40 level in brain at 25 mg/kg, ip administered daily for 4 weeks measured post-last dose by sandwich ELISA relative to control. The arrangement: scale not given: the % may be the effect or the level left.

Regarding `COc1ccc(N(C(=O)NCCCn2cncc2C)C2CCN(C)CC2)cc1OC`, the Activity in data set [1] was 35.1%; in data set [2], 36.6%; in data set [7], 100%; in [8], “Non-Toxic”; in data set [9], 50.5%; in [11], 57.9%. Moreover, the figures for the inhibition (INH) in data set [3] and in data set [4] were 46.1% and 26.1%, respectively. Moreover, the Stability was 89% in [5] and 100% in data set [6]. In data set [10], this molecule yielded an IC50 of 28.4 nM.

`COc1ccc(N(C(=O)NCCCn2cncc2C)C2CCN(Cc3ccccc3)CC2)cc1OC` yielded an inhibition (INH) in data set [3] of 73.5%. In data set [7], the Activity was 92.4%.

In turn, `COc1ccc(N(C(=O)NCCCn2cncc2C)C2CCNCC2)cc1OC` yielded an inhibition (INH) in [3] of 26.3%. The Activity in [7] is 88.3%.

The IC50 is the concentration that gives 50% inhibition.
